Apparent affinities of Ab-14 variants for a coronavirus HR2 peptide

Data: MIT Lincoln Laboratory AlphaSeq set, Engelhart et al. 2022, doi:10.1038/s41597-022-01779-4, as distributed in FLAb.

All variants were tested on one target, the spike HR2 peptide PDVDLGDISGINAS (SARS-CoV-2).

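Phage display of a naive human antibody library on the peptide gave the parent. AAYL50 was designed without a model: most single CDR substitutions and a random sample of double and triple ones. AlphaSeq pools MATa yeast showing the antibodies with MATalpha yeast showing the peptide. Pairs that bind mate more often; barcode pairs of the diploids are counted by sequencing. Each replicate has its own calibration line, from reference interactions of the BCL2 family. Mating was done three times.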

Parent scFv Ab-14: VH joined to VL by a (GGGGS)3 linker. Changes lie in the light chain CDRs alone.
VH: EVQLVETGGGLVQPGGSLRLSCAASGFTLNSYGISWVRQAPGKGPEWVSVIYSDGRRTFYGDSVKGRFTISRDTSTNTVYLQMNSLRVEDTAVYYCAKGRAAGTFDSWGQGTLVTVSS
VL: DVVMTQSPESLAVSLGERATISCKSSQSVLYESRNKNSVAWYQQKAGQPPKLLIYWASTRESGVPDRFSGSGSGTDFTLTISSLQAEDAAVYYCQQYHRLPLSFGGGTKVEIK

Substitutions are numbered in sequence along the VL above, starting at 1 (not Kabat).
Values are log10 of the apparent Kd in nM; lower means stronger binding.
Averages over replicates are reported, and they cover detected replicates only.
An entry "n.d." has no value in the source: the pair was not observed among the diploids in that replicate. This suggests poor binding but is not conclusive.
For reference, the parent read 0.65 as the reference entry and 1.68 as a member of this library.

changes,"replicates, log10 nM",mean log10 Kd (nM),control signals
Q27H/W56D/R99V,0.02 0.31 0.14,0.15,5/9 (4.81)
V29D/E61H,0.53 0.91 0.78,0.74,1/9 (4.92)
S26T/W56Q/E61R,0.41 0.58 0.42,0.47,5/9 (4.15)
Q27I/K36I/L102W,1.12 1.23 1.40,1.25,0/9
V39H/E61W/R99D,n.d. n.d. n.d.,n.d.,0/9
S26C/L30M/Y31P,2.21 2.12 2.28,2.20,4/9 (4.77)
R34N/R60N/H98A,2.86 3.15 3.77,3.26,3/9 (3.57)
K24P/S33K/P101H,n.d. 3.26 4.65,3.96,2/9 (3.64)
S38P/S58M/H98C,n.d. n.d. n.d.,n.d.,0/9
T59M/Q95S/R99S,2.67 n.d. n.d.,2.67,1/9 (5.07)
R34T/A40G/S103F,4.57 3.51 3.91,4.00,2/9 (4.35)
K24Y/A57G/Q95R,n.d. n.d. n.d.,n.d.,1/9 (2.87)
S28L/K36F/A40S,n.d. n.d. n.d.,n.d.,3/9 (3.80)
S28Q/Y31V/V39R,n.d. n.d. n.d.,n.d.,0/9
A57N/S58N/Q95D,n.d. n.d. n.d.,n.d.,0/9
S38Q/A40V/T59L,n.d. n.d. n.d.,n.d.,0/9
E32N/E61A/R99V,2.28 2.83 2.50,2.54,6/9 (3.96)
K36C/S38E/E61R,3.00 2.92 2.86,2.93,2/9 (2.90)
S33K/N37S/S62V,1.38 1.56 2.28,1.74,0/9
Q27I/A40Y/S103R,n.d. n.d. n.d.,n.d.,0/9
S25I/Q95M/L100H,0.49 0.72 0.79,0.67,2/9 (4.95)
S26H/E61V/L100M,1.15 1.13 1.21,1.16,4/9 (4.46)
E32M/S38H/S58T,n.d. n.d. n.d.,n.d.,0/9
N35D/A57G,n.d. n.d. n.d.,n.d.,0/9
S28G/E61G,1.52 1.69 1.76,1.66,3/9 (4.22)
K24E/K36C/L102H,2.43 2.14 2.53,2.37,2/9 (4.64)
K36W/E61R/H98E,2.59 2.42 2.23,2.41,2/9 (4.37)
R34F/N35T/K36Q,1.68 1.84 1.96,1.83,3/9 (3.54)
K24S/S25I/W56K,-0.33 0.02 -0.26,-0.19,1/9 (4.41)
K24H/S26Y/K36D,1.68 1.43 1.63,1.58,2/9 (3.92)
Y31C/Q95S,4.26 3.71 3.61,3.86,4/9 (4.47)
Q27C/V29E/L30E,n.d. n.d. n.d.,n.d.,1/9 (3.06)
K24G/V29I/P101C,n.d. n.d. n.d.,n.d.,0/9
S26Y/E32D/Y97L,n.d. n.d. n.d.,n.d.,1/9 (3.24)
L30V/A57E/T59K,n.d. n.d. 4.79,4.79,7/9 (5.38)
S26F/V29E/S62Y,0.59 0.87 0.78,0.75,3/9 (4.83)
Q27M/S58V/P101K,2.77 2.28 2.98,2.68,0/9
V39Q/Q95T/S103P,n.d. n.d. n.d.,n.d.,1/9 (4.81)
S33Q/S62C/Q95C,3.56 n.d. n.d.,3.56,0/9
S26I/L30R/W56E,-0.47 -0.06 -0.29,-0.27,3/9 (4.26)
Q27Y/L30I/W56F,2.80 3.14 2.72,2.88,2/9 (4.32)
S33M/K36S/P101K,0.85 0.97 1.09,0.97,3/9 (3.35)
S26K/P101R/L102V,1.13 1.18 1.54,1.28,1/9 (3.78)
S25M/N37T,1.13 1.21 1.21,1.18,2/9 (5.21)

Picked from the list: the 5 lowest averages where every replicate gave a value.

changes,"replicates, log10 nM",mean log10 Kd (nM),control signals
S26I/L30R/W56E,-0.47 -0.06 -0.29,-0.27,3/9 (4.26)
K24S/S25I/W56K,-0.33 0.02 -0.26,-0.19,1/9 (4.41)
Q27H/W56D/R99V,0.02 0.31 0.14,0.15,5/9 (4.81)
S26T/W56Q/E61R,0.41 0.58 0.42,0.47,5/9 (4.15)
S25I/Q95M/L100H,0.49 0.72 0.79,0.67,2/9 (4.95)

Three control strains display no target. For library AAYL50, 18% of the pairings with them gave a signal, with a median of 4.19 and one signal in twenty below 2.99, so weak values seen in few replicates may be background. Also given: how often the same scFv was detected with the empty control strains, with their mean in brackets.